Laboratory results from PubChem BioAssay (NCI).
Some of these compounds have results that are not shown, active ones among them.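 A five-concentration, 48-hour dose response in 96-well plates underlies each endpoint, interpolated linearly between surrounding concentrations. GI50: concentration for 50% inhibition of growth. TGI: concentration producing complete growth inhibition.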

Experiments:
Experiment in all cases: inhibition of tumour cell growth, NCI panel, 48 h; in the data active = GI50 below about 0.43 µM; inactive = the rest
HOP-62 NSCLC = test system: HOP-62 NSCLC
MCF7 breast = test system: MCF7 breast
NCI/ADR-RES ovarian = test system: NCI/ADR-RES ovarian
COLO 205 colon = test system: COLO 205 colon
SF-539 CNS = test system: SF-539 CNS
NCI-H460 lung = test system: NCI-H460 lung
OVCAR-8 ovarian = test system: OVCAR-8 ovarian
NCI-H322M lung = test system: NCI-H322M lung
SK-MEL-28 melanoma = test system: SK-MEL-28 melanoma
MALME-3M melanoma = test system: MALME-3M melanoma
OVCAR-4 ovarian = test system: OVCAR-4 ovarian
A549 NSCLC = test system: A549 NSCLC
K-562 leukemia = test system: K-562 leukemia
NCI-H23 lung = test system: NCI-H23 lung
SK-MEL-5 melanoma = test system: SK-MEL-5 melanoma
A498 renal = test system: A498 renal
HT29 colon = test system: HT29 colon
NCI-H522 lung = test system: NCI-H522 lung
SNB-75 CNS = test system: SNB-75 CNS
HL-60(TB) leukemia = test system: HL-60(TB) leukemia
SK-MEL-2 melanoma = test system: SK-MEL-2 melanoma
PC-3 prostate = test system: PC-3 prostate
LOX IMVI melanoma = test system: LOX IMVI melanoma
EKVX NSCLC = test system: EKVX NSCLC
RXF 393 renal = test system: RXF 393 renal
SW-620 colon = test system: SW-620 colon
UACC-257 melanoma = test system: UACC-257 melanoma
MDA-MB-435 = test system: MDA-MB-435
HCT-116 colon = test system: HCT-116 colon
OVCAR-3 ovarian = test system: OVCAR-3 ovarian
CAKI-1 renal = test system: CAKI-1 renal
HCC-2998 colon = test system: HCC-2998 colon
NCI-H226 lung = test system: NCI-H226 lung
IGROV1 ovarian = test system: IGROV1 ovarian
MDA-N = test system: MDA-N
CCRF-CEM leukemia = test system: CCRF-CEM leukemia
HCT-15 colon = test system: HCT-15 colon
SR leukemia = test system: SR leukemia
SK-OV-3 ovarian = test system: SK-OV-3 ovarian
M14 melanoma = test system: M14 melanoma
UACC-62 melanoma = test system: UACC-62 melanoma
SN12C renal = test system: SN12C renal
786-0 renal = test system: 786-0 renal
SF-295 CNS = test system: SF-295 CNS
MDA-MB-231 breast = test system: MDA-MB-231 breast
KM12 colon = test system: KM12 colon
OVCAR-5 ovarian = test system: OVCAR-5 ovarian
DU-145 prostate = test system: DU-145 prostate
UO-31 renal = test system: UO-31 renal
TK-10 renal = test system: TK-10 renal
T-47D breast = test system: T-47D breast
HS 578T breast = test system: HS 578T breast
SF-268 CNS = test system: SF-268 CNS
MOLT-4 leukemia = test system: MOLT-4 leukemia
U251 CNS = test system: U251 CNS
RPMI-8226 leukemia = test system: RPMI-8226 leukemia
ACHN renal = test system: ACHN renal
SNB-19 CNS = test system: SNB-19 CNS

CC#CC(O)(C(=O)OC1CCN(C)CC1)C1CCCCC1 (stereo unspecified)
inactive: GI50 (HOP-62 NSCLC) > 100 µM | GI50 (MCF7 breast) > 100 µM | GI50 (NCI/ADR-RES ovarian) > 100 µM | GI50 (COLO 205 colon) > 100 µM | GI50 (SF-539 CNS) > 100 µM | GI50 (NCI-H460 lung) > 100 µM | GI50 (OVCAR-8 ovarian) > 100 µM | GI50 (NCI-H322M lung) > 100 µM | GI50 (SK-MEL-28 melanoma) > 100 µM | GI50 (MALME-3M melanoma) > 100 µM | GI50 (OVCAR-4 ovarian) > 100 µM | GI50 (A549 NSCLC) > 100 µM | GI50 (K-562 leukemia) > 100 µM | GI50 (NCI-H23 lung) > 100 µM | GI50 (SK-MEL-5 melanoma) > 100 µM | GI50 (A498 renal) > 100 µM | GI50 (HT29 colon) > 100 µM | GI50 (NCI-H522 lung) > 100 µM | GI50 (SNB-75 CNS) 84.3 µM | GI50 (HL-60(TB) leukemia) > 100 µM | GI50 (SK-MEL-2 melanoma) > 100 µM | GI50 (PC-3 prostate) > 100 µM | GI50 (LOX IMVI melanoma) > 100 µM | GI50 (EKVX NSCLC) > 100 µM | GI50 (RXF 393 renal) > 100 µM | GI50 (SW-620 colon) > 100 µM | GI50 (UACC-257 melanoma) > 100 µM | GI50 (MDA-MB-435) > 100 µM | GI50 (HCT-116 colon) > 100 µM | GI50 (OVCAR-3 ovarian) > 100 µM | GI50 (CAKI-1 renal) > 100 µM | GI50 (HCC-2998 colon) > 100 µM | GI50 (NCI-H226 lung) > 100 µM | GI50 (IGROV1 ovarian) > 100 µM | GI50 (MDA-N) > 100 µM | GI50 (CCRF-CEM leukemia) > 100 µM | GI50 (HCT-15 colon) > 100 µM | GI50 (SR leukemia) > 100 µM | GI50 (SK-OV-3 ovarian) > 100 µM | GI50 (M14 melanoma) > 100 µM | GI50 (UACC-62 melanoma) > 100 µM | GI50 (SN12C renal) > 100 µM | GI50 (786-0 renal) > 100 µM | GI50 (SF-295 CNS) > 100 µM | GI50 (MDA-MB-231 breast) > 100 µM | GI50 (KM12 colon) > 100 µM | GI50 (OVCAR-5 ovarian) > 100 µM | GI50 (DU-145 prostate) > 100 µM | GI50 (UO-31 renal) > 100 µM | GI50 (TK-10 renal) > 100 µM | GI50 (T-47D breast) > 100 µM | GI50 (HS 578T breast) > 100 µM | GI50 (SF-268 CNS) > 100 µM | GI50 (MOLT-4 leukemia) > 100 µM | GI50 (U251 CNS) > 100 µM | GI50 (RPMI-8226 leukemia) > 100 µM | GI50 (ACHN renal) > 100 µM | GI50 (SNB-19 CNS) > 100 µM
> 100 µM: TGI (HOP-62 NSCLC) | TGI (MCF7 breast) | TGI (NCI/ADR-RES ovarian) | TGI (COLO 205 colon) | TGI (SF-539 CNS) | TGI (NCI-H460 lung) | TGI (OVCAR-8 ovarian) | TGI (NCI-H322M lung) | TGI (SK-MEL-28 melanoma) | TGI (MALME-3M melanoma) | TGI (OVCAR-4 ovarian) | TGI (A549 NSCLC) | TGI (K-562 leukemia) | TGI (NCI-H23 lung) | TGI (SK-MEL-5 melanoma) | TGI (A498 renal) | TGI (HT29 colon) | TGI (NCI-H522 lung) | TGI (SNB-75 CNS) | TGI (HL-60(TB) leukemia) | TGI (SK-MEL-2 melanoma) | TGI (PC-3 prostate) | TGI (LOX IMVI melanoma) | TGI (EKVX NSCLC) | TGI (RXF 393 renal) | TGI (SW-620 colon) | TGI (UACC-257 melanoma) | TGI (MDA-MB-435) | TGI (HCT-116 colon) | TGI (OVCAR-3 ovarian) | TGI (CAKI-1 renal) | TGI (HCC-2998 colon) | TGI (NCI-H226 lung) | TGI (IGROV1 ovarian) | TGI (MDA-N) | TGI (CCRF-CEM leukemia) | TGI (HCT-15 colon) | TGI (SR leukemia) | TGI (SK-OV-3 ovarian) | TGI (M14 melanoma) | TGI (UACC-62 melanoma) | TGI (SN12C renal) | TGI (786-0 renal) | TGI (SF-295 CNS) | TGI (MDA-MB-231 breast) | TGI (KM12 colon) | TGI (OVCAR-5 ovarian) | TGI (DU-145 prostate) | TGI (UO-31 renal) | TGI (TK-10 renal) | TGI (T-47D breast) | TGI (HS 578T breast) | TGI (SF-268 CNS) | TGI (MOLT-4 leukemia) | TGI (U251 CNS) | TGI (RPMI-8226 leukemia) | TGI (ACHN renal) | TGI (SNB-19 CNS)
